Source: PubChem BioAssay (several laboratories)
PABP polyA inh: PABP poly(A) RNA binding inhibitors, primary screen, biochemical, fluorescence polarization, uHTS | Polyadenylate-binding protein 1 (Homo sapiens), P11940 | calls only at 35 µM | actives 1% (n = 290,000);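 also: calls also rest on retests at 20 µM and on dose response follow-up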
DSG3 Ab inh: inhibitors of pemphigus antibody binding to DSG3, primary screen, biochemical, bead-based, flow cytometry, scFv-GFP; actives 0.48% (n = 310,000); DSG3-coupled beads, scFv-anti-DSG3-GFP binding; active compounds read low; binding (percent of control), % at 10 µM; Desmoglein-3 (Homo sapiens), P32926; AID 588358, 2011;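 active = binding more than 3 SD below its plate's average and above zero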;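 also: hits lower antibody fragment binding to DSG3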
MLLE-PAM2 inh: inhibitors of PABP1 MLLE–PAM2 peptide binding, primary screen, biochemical, fluorescence polarization, FITC-PAM2, GST-MLLE; Polyadenylate-binding protein 1 (Homo sapiens), P11940; inhibition, % at 20 µM; actives 0.36% (n = 360,000); in the data active = inhibition above about 35%, passing the limit was not always enough;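 also: plate controls were DMSO wells with GST-MLLE for no effect and wells lacking GST-MLLE protein for full effect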
UUG fidelity: alters start codon recognition fidelity in yeast. S. cerevisiae UUG-firefly luciferase reporter, luminescence/redox ratio. 350,000 tested, 0.13% active. activity score, % at 18.7 µM. AID 602363;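 active means replicate mean at a twofold rise or more, about +100% in these data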;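 further: firefly luciferase made from a UUG start codon reports start codon fidelity; reporter light over untreated wells divided by growth signal over untreated wells; some hits fall short of that in this replicate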
eIF4H FP inh: human eIF4H binding inhibitors, primary screen, translation initiation inhibitor project, biochemical, uHTS, fluorescence polarization | Eukaryotic translation initiation factor 4H (Homo sapiens), Q15056 | eIF4H fluorescence polarization binding assay | inhibition, % at 35 µM | actives 0.94% (n = 290,000) | AID 2012, 2009;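 also: calls also rest on retests at 20 µM and on dose response follow-up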
* hit, by the source's call; ! = repeats disagree. Shown are actives, neighbours in structure and some others; about 1.5% of the full set was active somewhere. Unless noted, no rule for the calls is given here.

Amino acid sequences for entries named in this document (tags omitted).
Polyadenylate-binding protein 1 (Homo sapiens), P11940, UniProt P11940, whole entry, looked up: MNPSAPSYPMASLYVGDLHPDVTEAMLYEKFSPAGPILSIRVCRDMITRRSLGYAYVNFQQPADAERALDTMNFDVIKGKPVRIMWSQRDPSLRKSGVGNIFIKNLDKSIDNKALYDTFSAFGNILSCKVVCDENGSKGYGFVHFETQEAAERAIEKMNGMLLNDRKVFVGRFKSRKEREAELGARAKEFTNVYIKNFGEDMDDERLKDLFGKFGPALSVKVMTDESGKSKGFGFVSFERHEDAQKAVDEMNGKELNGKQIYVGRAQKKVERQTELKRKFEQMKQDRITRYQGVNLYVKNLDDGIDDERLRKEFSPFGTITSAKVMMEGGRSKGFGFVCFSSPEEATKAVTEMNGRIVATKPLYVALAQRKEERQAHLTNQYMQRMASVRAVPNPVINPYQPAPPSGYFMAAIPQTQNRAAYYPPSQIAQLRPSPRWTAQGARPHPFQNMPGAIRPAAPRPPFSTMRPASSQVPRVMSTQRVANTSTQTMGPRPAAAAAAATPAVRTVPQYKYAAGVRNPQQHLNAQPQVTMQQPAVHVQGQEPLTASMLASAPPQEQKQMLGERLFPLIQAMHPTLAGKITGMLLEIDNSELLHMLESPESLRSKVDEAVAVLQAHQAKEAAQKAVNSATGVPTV
Desmoglein-3 (Homo sapiens), P32926, UniProt P32926, whole entry, looked up: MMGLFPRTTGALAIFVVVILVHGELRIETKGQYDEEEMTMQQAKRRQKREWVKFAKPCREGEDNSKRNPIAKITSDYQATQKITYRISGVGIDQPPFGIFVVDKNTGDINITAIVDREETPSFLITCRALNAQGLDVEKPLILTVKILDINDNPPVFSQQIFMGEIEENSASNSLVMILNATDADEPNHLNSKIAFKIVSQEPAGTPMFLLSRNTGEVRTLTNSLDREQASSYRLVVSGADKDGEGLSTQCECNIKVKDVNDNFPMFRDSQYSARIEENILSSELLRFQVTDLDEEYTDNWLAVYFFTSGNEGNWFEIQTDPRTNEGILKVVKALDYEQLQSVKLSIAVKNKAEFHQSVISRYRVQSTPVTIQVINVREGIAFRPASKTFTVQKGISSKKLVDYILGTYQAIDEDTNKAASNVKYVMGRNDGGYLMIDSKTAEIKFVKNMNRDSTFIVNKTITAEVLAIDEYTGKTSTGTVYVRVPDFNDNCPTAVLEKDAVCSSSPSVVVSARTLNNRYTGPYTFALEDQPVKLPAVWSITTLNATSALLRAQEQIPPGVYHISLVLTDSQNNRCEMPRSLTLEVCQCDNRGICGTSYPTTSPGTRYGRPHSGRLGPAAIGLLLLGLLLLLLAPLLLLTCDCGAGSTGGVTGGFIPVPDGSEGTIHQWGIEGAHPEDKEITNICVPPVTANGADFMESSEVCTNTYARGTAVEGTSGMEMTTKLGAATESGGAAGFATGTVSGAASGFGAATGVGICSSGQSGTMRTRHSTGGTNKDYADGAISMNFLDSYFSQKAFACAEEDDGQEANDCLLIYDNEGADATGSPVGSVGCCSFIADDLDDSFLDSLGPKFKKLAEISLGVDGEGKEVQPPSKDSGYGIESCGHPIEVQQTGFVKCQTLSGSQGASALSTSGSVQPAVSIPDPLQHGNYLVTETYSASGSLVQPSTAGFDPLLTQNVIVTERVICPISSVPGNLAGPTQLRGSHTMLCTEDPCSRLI

How did CCSC1(SCC)N=C(N)C2(C#N)C(c3ccccc3)NC3=C(CCC3)C12C#N (configuration not stated) do in these assays?
PABP polyA inh: active; DSG3 Ab inh: 94.0; MLLE-PAM2 inh: 1.6; UUG fidelity: -13.8; eIF4H FP inh: 71.8*

Results for CCOC(=O)c1ccc[n+](CC(=O)c2ccccc2)c1 ?
PABP polyA inh: active; DSG3 Ab inh: 108.5; MLLE-PAM2 inh: 0.0; UUG fidelity: -6.7; eIF4H FP inh: 59.0*

What do the screens show for `CCOC(=O)c1ccc[n+](CC(=O)c2ccc(OC)cc2)c1`?
PABP polyA inh: inactive; DSG3 Ab inh: 101.2; MLLE-PAM2 inh: -4.4; UUG fidelity: 1.6; eIF4H FP inh: 39.3

What do the screens show for `CCCNC(=O)CCc1c(C)nc2nc(-c3cc(OC)cc(OC)c3)nn2c1C`?
PABP polyA inh: inactive; MLLE-PAM2 inh: 2.6; UUG fidelity: -9.4; eIF4H FP inh: 0.1

What do the screens show for `CCOC(=O)C(Cc1ccccc1)NC(=O)CCc1c(C)nc2ncnn2c1C` (configuration not stated)?
PABP polyA inh: inactive; MLLE-PAM2 inh: -6.0; UUG fidelity: 0.3; eIF4H FP inh: 5.4

What do the screens show for `CCOC(=O)C(Cc1ccccc1)NC(=O)CCc1c(C)nc2nc(C)nn2c1C` (configuration not stated)?
PABP polyA inh: inactive; DSG3 Ab inh: 85.9*; MLLE-PAM2 inh: -5.9; UUG fidelity: -16.7; eIF4H FP inh: 3.0

Results for CCCCNC(=O)CCc1c(C)nc2nc(-c3cc(OC)cc(OC)c3)nn2c1C ?
PABP polyA inh: inactive; DSG3 Ab inh: -1.6*; MLLE-PAM2 inh: 11.3; UUG fidelity: -0.6; eIF4H FP inh: -1.2

What do the screens show for `Cc1ccc(-c2nc3ccc(C(=O)O)cc3nc2-c2ccc(C)cc2)cc1`?
PABP polyA inh: inactive; DSG3 Ab inh: 99.2; MLLE-PAM2 inh: 12.8; UUG fidelity: -15.4; eIF4H FP inh: -9.3

What do the screens show for `O=C(c1ccco1)N1CCN(C(=O)c2cc(-c3ccncc3)nc3ccc(Br)cc23)CC1`?
DSG3 Ab inh: 103.3; MLLE-PAM2 inh: -45.1; UUG fidelity: -6.9

How did O=C(O)c1cc(-c2ccco2)nc2ccc(Br)cc12 do in these assays?
PABP polyA inh: active!; DSG3 Ab inh: 107.6; MLLE-PAM2 inh: 23.9; UUG fidelity: -17.5; eIF4H FP inh: 87.0*

Results for O=C(O)c1ccc2nc(-c3ccco3)c(-c3ccco3)nc2c1 ?
PABP polyA inh: active; DSG3 Ab inh: 95.8; MLLE-PAM2 inh: 50.4*; UUG fidelity: -2.8; eIF4H FP inh: 98.2*

How did O=C(Nc1cccc(C(F)(F)F)c1)c1ccc2nc(-c3ccco3)c(-c3ccco3)nc2c1 do in these assays?
PABP polyA inh: active; DSG3 Ab inh: 86.0; MLLE-PAM2 inh: -14.4; UUG fidelity: -14.2; eIF4H FP inh: 74.8*

What do the screens show for `O=C(Nc1cccc(C(F)(F)F)c1)c1cc[n+]([O-])cc1`?
PABP polyA inh: inactive; DSG3 Ab inh: 112.7; MLLE-PAM2 inh: -0.9; eIF4H FP inh: -7.7

How did O=S(=O)(c1ccc2nc(-c3ccco3)c(-c3ccco3)nc2c1)N1CCOCC1 do in these assays?
PABP polyA inh: active; DSG3 Ab inh: 200.5; MLLE-PAM2 inh: 23.0; UUG fidelity: 15.3; eIF4H FP inh: 94.9*

What do the screens show for `CNC[C@H]1Oc2ncc(-c3ccccc3F)cc2C(=O)N([C@@H](C)CO)C[C@H]1C`?
UUG fidelity: -7.0

Overlap with the part before: 4 compounds, followed by the next part.
How did O=C(Nc1cccc(C(F)(F)F)c1)c1ccc2nc(-c3ccco3)c(-c3ccco3)nc2c1 do in these assays?
PABP polyA inh: active; DSG3 Ab inh: 86.0; MLLE-PAM2 inh: -14.4; UUG fidelity: -14.2; eIF4H FP inh: 74.8*

What do the screens show for `O=C(Nc1cccc(C(F)(F)F)c1)c1cc[n+]([O-])cc1`?
PABP polyA inh: inactive; DSG3 Ab inh: 112.7; MLLE-PAM2 inh: -0.9; eIF4H FP inh: -7.7

How did O=S(=O)(c1ccc2nc(-c3ccco3)c(-c3ccco3)nc2c1)N1CCOCC1 do in these assays?
PABP polyA inh: active; DSG3 Ab inh: 200.5; MLLE-PAM2 inh: 23.0; UUG fidelity: 15.3; eIF4H FP inh: 94.9*

What do the screens show for `CNC[C@H]1Oc2ncc(-c3ccccc3F)cc2C(=O)N([C@@H](C)CO)C[C@H]1C`?
UUG fidelity: -7.0

Results for O=C(NCC[C@@H]1CC[C@@H](NS(=O)(=O)Cc2ccccc2)[C@H](CO)O1)C1CCOCC1 ?
UUG fidelity: 10.2

Results for COc1ccc(S(=O)(=O)N(C)C[C@@H]2OCCCC[C@@H](C)Oc3ccc(NC(=O)NC(C)C)cc3C(=O)N([C@H](C)CO)C[C@H]2C)cc1 ?
UUG fidelity: -15.8

How did O=C(c1ccc2nc(-c3ccco3)c(-c3ccco3)nc2c1)N1CCN(c2ccccc2)CC1 do in these assays?
PABP polyA inh: active; DSG3 Ab inh: 92.1; MLLE-PAM2 inh: 21.6; UUG fidelity: 4.6; eIF4H FP inh: 93.7*

Results for O=C(COn1nnc2ccc(Cl)cc21)NC12CC3CC(CC(C3)C1)C2 ?
PABP polyA inh: inactive; DSG3 Ab inh: 85.6*; MLLE-PAM2 inh: -11.9; eIF4H FP inh: -7.1

How did O=C(COn1nnc2ccc(Cl)cc21)Nc1ccc(F)cc1 do in these assays?
PABP polyA inh: inactive; DSG3 Ab inh: 106.4; MLLE-PAM2 inh: 1.3; UUG fidelity: -11.0; eIF4H FP inh: 1.4

How did O=[N+]([O-])c1ccc(OCc2cnc(Cl)s2)c([N+](=O)[O-])c1 do in these assays?
PABP polyA inh: inactive; DSG3 Ab inh: 86.8*; MLLE-PAM2 inh: 0.3; eIF4H FP inh: -3.7

How did Cc1ccnc(SCc2cc(=O)c(OC(=O)c3ccco3)co2)n1 do in these assays?
PABP polyA inh: active; DSG3 Ab inh: 93.6; MLLE-PAM2 inh: -1.7; eIF4H FP inh: 7.6*

How did O=C(O)c1cc(-n2nnnc2SCc2ccccc2F)ccc1Cl do in these assays?
PABP polyA inh: inactive; DSG3 Ab inh: 74.0*; MLLE-PAM2 inh: 4.2; eIF4H FP inh: 1.4

Results for O=C(Cc1ccccn1)N[C@@H]1C=C[C@H](CC(=O)N2CCCCC2)O[C@H]1CO ?
UUG fidelity: -12.4

How did CCCCC(=O)NCc1ccc2c(c1)cc(C)n2C do in these assays?
PABP polyA inh: inactive; DSG3 Ab inh: 99.5; MLLE-PAM2 inh: 14.1; UUG fidelity: -8.0; eIF4H FP inh: 71.5

What do the screens show for `Cc1ccccc1NC(=S)NCc1ccc2c(c1)cc(C)n2C`?
PABP polyA inh: inactive; DSG3 Ab inh: 66.0*; MLLE-PAM2 inh: -28.6; UUG fidelity: -34.9; eIF4H FP inh: 23.6

What do the screens show for `Cc1cc2cc(CNC(=O)Nc3ccccc3)ccc2[nH]1`?
PABP polyA inh: inactive; DSG3 Ab inh: 76.2*; MLLE-PAM2 inh: 30.4; UUG fidelity: -7.9; eIF4H FP inh: -1.3

How did COc1ccccc1NC(=S)NCc1ccc2c(c1)cc(C)n2C do in these assays?
PABP polyA inh: inactive; MLLE-PAM2 inh: -1.0; UUG fidelity: -12.3; eIF4H FP inh: -0.1

How did CCOC(=O)CCC(=O)NCc1ccc2c(c1)cc(C)n2C do in these assays?
PABP polyA inh: active; DSG3 Ab inh: 99.5; MLLE-PAM2 inh: 21.4; UUG fidelity: 9.5; eIF4H FP inh: 102.6

What do the screens show for `Cc1cc2cc(CNC(=O)C(C)Oc3ccccc3)ccc2n1C` (configuration not stated)?
PABP polyA inh: active; DSG3 Ab inh: 87.4; MLLE-PAM2 inh: 26.0; eIF4H FP inh: 73.1

Results for CCC(CC)C(=O)NCc1ccc2c(c1)cc(C)n2C ?
PABP polyA inh: inactive; MLLE-PAM2 inh: 21.5; UUG fidelity: -7.8; eIF4H FP inh: 1.9

What do the screens show for `CCS(=O)(=O)N[C@H]1C=C[C@H](CC(=O)NCc2ccc(F)cc2)O[C@H]1CO`?
UUG fidelity: -8.8
